Target: Nuclear factor NF-kappa-B complex (Homo sapiens, UniProt P19838+Q00653+Q04206)
Test: Inhibition of NF-kappaB (unknown origin)
Format: protein-complex assay

Protein sequences, listed by entry. Tags and fused reporters are not part of them. Residues count along the entry.
UniProt P19838, 1-433 limits assumed: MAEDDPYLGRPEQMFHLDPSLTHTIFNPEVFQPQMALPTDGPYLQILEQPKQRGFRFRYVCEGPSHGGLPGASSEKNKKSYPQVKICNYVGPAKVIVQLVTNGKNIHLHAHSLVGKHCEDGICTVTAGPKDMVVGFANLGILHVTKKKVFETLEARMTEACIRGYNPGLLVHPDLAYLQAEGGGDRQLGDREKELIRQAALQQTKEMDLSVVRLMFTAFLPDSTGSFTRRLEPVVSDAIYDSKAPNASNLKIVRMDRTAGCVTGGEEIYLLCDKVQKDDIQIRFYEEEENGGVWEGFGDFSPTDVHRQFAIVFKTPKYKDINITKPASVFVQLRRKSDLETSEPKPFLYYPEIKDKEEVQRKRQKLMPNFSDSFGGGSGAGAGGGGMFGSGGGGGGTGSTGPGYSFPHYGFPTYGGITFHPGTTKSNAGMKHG
UniProt Q00653, 1-454 limits assumed: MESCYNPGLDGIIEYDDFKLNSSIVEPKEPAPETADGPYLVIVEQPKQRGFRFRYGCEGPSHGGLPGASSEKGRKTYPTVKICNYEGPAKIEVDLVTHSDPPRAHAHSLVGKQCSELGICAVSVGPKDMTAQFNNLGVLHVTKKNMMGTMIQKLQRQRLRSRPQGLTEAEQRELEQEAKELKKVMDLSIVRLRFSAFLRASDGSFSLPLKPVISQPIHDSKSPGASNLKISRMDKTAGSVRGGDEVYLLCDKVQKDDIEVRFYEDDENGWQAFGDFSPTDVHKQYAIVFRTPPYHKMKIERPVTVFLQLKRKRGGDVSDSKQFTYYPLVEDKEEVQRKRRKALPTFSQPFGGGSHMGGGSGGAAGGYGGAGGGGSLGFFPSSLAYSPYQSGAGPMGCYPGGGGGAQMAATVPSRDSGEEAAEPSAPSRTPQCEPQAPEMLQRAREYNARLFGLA
UniProt Q04206, whole entry: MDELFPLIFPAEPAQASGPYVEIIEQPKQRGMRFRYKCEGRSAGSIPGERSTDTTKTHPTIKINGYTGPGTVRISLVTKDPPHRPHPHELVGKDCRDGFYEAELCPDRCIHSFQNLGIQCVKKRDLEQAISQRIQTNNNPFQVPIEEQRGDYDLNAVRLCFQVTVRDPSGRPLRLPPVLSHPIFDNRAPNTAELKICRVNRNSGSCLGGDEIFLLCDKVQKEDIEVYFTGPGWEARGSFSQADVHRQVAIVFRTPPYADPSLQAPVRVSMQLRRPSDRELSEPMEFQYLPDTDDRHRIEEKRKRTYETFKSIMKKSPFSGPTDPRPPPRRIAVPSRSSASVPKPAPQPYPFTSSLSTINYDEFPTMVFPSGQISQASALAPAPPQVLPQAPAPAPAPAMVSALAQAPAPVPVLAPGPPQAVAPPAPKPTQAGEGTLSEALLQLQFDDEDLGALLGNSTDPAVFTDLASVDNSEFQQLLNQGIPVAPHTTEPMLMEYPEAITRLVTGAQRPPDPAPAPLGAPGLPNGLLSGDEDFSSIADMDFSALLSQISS

## COc1cc(/C=C/C(=O)CC(=O)/C=C/c2ccc(O)c(OC)c2)ccc1O [CURCUMIN]
  IC50: ≤ 1000 nM

Source: ChEMBL document CHEMBL5512649, “Drug development and potential targets for Cushing's syndrome” (Eur J Med Chem, 2024)
